The text below walks through data of PubChem BioAssay AID463141 (The Scripps Research Institute Molecular Screening Center, 2010).

Chains of the proteins cited; added tags and fusions are not shown. Lines headed by an entry give the natural chain unless they say otherwise; changes in a name come on top.
UniProt P42574: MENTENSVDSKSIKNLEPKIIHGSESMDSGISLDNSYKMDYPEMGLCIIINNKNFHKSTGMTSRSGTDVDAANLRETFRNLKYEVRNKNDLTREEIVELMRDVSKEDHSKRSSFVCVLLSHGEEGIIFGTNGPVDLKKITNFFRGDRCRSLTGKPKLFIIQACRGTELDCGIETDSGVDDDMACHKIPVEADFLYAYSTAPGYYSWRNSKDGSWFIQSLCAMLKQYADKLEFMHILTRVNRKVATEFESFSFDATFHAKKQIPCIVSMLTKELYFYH

The entries are a selection whose mix differs from that of the whole data set. Activity calls are given as the source filed them.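 Rule for the calls: active = activation above the mean of all tested compounds plus 3 SD (cut at about 21% in these data); inactive = the rest.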

This assay has as its target Caspase-3 (Homo sapiens) (UniProt P42574). Briefly: activators of human procaspase-3 D3A mutant, primary screen, biochemical, absorbance, PC-3 D3A mutant, single concentration (AID 463141).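 Note: 0% = DMSO alone and 100% = DMSO wells spiked with extra 5 µM PC-3 D3A.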 Conditions: recombinant procaspase-3 D3A, Ac-DEVD-pNA absorbance 405 nm; at 8.5 µM; stronger effect = higher value.
For `O=[As](O)(c1cccs1)c1cccs1`, the activation was inactive: -9.51%.
To `Cc1ccc(OCC(=O)OC2CN3CCC2CC3)cc1` (stereo unspecified) belongs inactive: 7.26%; to `NS(=O)(=O)c1cccc(NC(=O)COC(=O)C(O)(c2ccccc2)c2ccccc2)c1`, inactive: 8.28%.
Turning to `O=P1(Nc2ccc(Br)cn2)COc2ccccc2OC1`, the activation was inactive: -5.76%.
To `O=P1(Nc2ncccn2)COc2ccccc2OC1` belongs inactive: 7.08%; to `CN(C)C1(CNC(=O)c2ccc(S(C)(=O)=O)cc2)CCCCC1`, inactive: 1.88%.
Turning to `O=C(/C=C/c1ccccc1)OC1CN2CCC1CC2` (stereo unspecified), the activation is inactive: -6.22%.
To `Cc1nn(-c2ccccc2)c2c1P(=O)(N1CCOCC1)N(C)C(c1ccccc1)=N2` (stereo unspecified) belongs inactive: 3.35%; to `Cc1ccc(C(=O)OC2CN3CCC2CC3)cc1` (stereo unspecified), inactive: 0.46%.
To `CC1CCC(C(C)C)C(OP(=O)(Nc2ccccn2)c2ccccc2)C1` (stereo unspecified) belongs inactive: 2.59%; to `CN(C(=O)Cc1ccc(Cl)c(Cl)c1)[C@@H]1CCCC[C@H]1N1CCCC1`, inactive: 2.48%.
To `CC(C)/C=N\N=C(\N)N[N+](=O)[O-]` belongs inactive: -3.68%; to `O=[As](O)(c1ccccc1Br)c1ccccc1Br`, inactive: -8.49%; to `CC1(CBr)Cn2c(nc3ccccc3c2=O)S1` (stereo unspecified), inactive: -0.23%.
For `COc1ccccc1CNC(=O)COC(=O)C(O)(c1ccccc1)c1ccccc1`, the activation was inactive: 5.27%.
To `Clc1n[nH]nc1-c1nn[nH][15n]1` belongs inactive: 7.14%; to `CC(C)(C)C(=O)NC(Sc1ncccn1)C(Cl)(Cl)Cl` (stereo unspecified), inactive: -23.2%; to `CCC1=CC2Cc3nc4ccc(Cl)cc4c(N)c3C(C1)C2` (stereo unspecified), inactive: -6.95%.
To `O=P1(Nc2ccccn2)COc2ccccc2OC1` belongs inactive: 0.71%.
To `CCOP(=O)(NC(=NC(C)c1ccccc1)NC(C)c1ccccc1)OCC` (stereo unspecified) belongs inactive: 5.1%.
On to `CCOP(=O)(Nc1ccc(C)cn1)OCC`, for which the activation was inactive: -5.19%.
To `CN(CCCl)Cc1cc(Cl)c(NC2=NCCN2)c(Cl)c1` belongs inactive: -4.56%.
To `COc1cc(C2NCCC3(OCCO3)C2(C)C)cc(OC)c1OC` (stereo unspecified) belongs inactive: 11.5%; to `CCOP(=O)(Nc1cccc2ccccc12)OCC`, inactive: -1.27%; to `Nc1cccc2c([As](=O)(O)O)cccc12`, inactive: 3.06%.
To `Cc1ccc(NCCc2c([N+](=O)[O-])cc([N+](=O)[O-])cc2[N+](=O)[O-])cc1` belongs inactive: -3.61%; to `CCCOP(=S)(Nc1nc(N)cc(=O)[nH]1)OCCC`, inactive: 4.65%; to `Cc1cccc(OCC(=O)OC2CN3CCC2CC3)c1` (stereo unspecified), inactive: -0.13%.
Turning to `O=[As](O)(c1cccc(O)c1)c1cccc(O)c1`, the activation was inactive: -7.52%.
To `O=C(OC1CN2CCC1CC2)c1ccc(Cl)cc1` (stereo unspecified) belongs inactive: -9.31%; to `O=[As](O)(O)c1cccnc1`, inactive: -3.24%.
To `COc1cc(C(=O)NCC2(N3CCOCC3)CCCCC2)cc(Cl)c1OC(C)C` belongs inactive: 9.25%; to `CS(=O)(=O)c1ccc(Cl)c(NC(=O)COC(=O)C(O)(c2ccccc2)c2ccccc2)c1`, inactive: 3.28%.
To `N#CCCN(C(=O)COC(=O)C(O)(c1ccccc1)c1ccccc1)c1ccc(F)cc1` belongs inactive: 3.38%; to `CN(C(=O)Cc1ccccc1)[C@@H]1CC[C@]2(CCCO2)C[C@H]1N1CCCC1`, inactive: -9.67%.
Consider `CCOP1(=S)c2c(C)nn(CCC#N)c2N=C(c2ccc(F)cc2)N1C` (stereo unspecified), for which the activation was inactive: -7.14%.
Consider `O=[N+]([O-])c1ccc2c(c1)nnn2O`, for which the activation was inactive: 6.11%.
To `CN(C)C(=O)c1cc([N+](=O)[O-])cc2c1-c1c(cc([N+](=O)[O-])cc1[N+](=O)[O-])C2=O` belongs inactive: -11.1%; to `CN(C(=O)Cc1ccc(Cl)c(Cl)c1)[C@H]1CC[C@@]2(CCCO2)C[C@@H]1N1CCCC1`, inactive: -2.72%; to `NC(=O)Nc1ccc([As](=O)(O)O)cc1`, inactive: 5.8%.
As to `O=C(O)COc1ccc([As](=O)(O)O)cc1[N+](=O)[O-]`, the activation is inactive: -6.1%.
To `Nc1ccccc1[As](=O)(O)c1ccccc1` belongs inactive: 0.61%; to `CCOP1(=S)c2c(C)nn(CCC#N)c2N=C(c2ccccc2F)N1C` (stereo unspecified), inactive: 14%.
To `O=P(Nc1nccs1)(Oc1ccccc1)Oc1ccccc1` belongs inactive: -3.55%.
To `O=P(Nc1nccs1)(c1ccccc1)c1nc2ccccc2s1` (stereo unspecified) belongs inactive: -26.8%; to `CS(=O)(=O)c1cc([N+](=O)[O-])c2no[n+]([O-])c2c1`, inactive: -4.09%.
